This is an account of results in patent US20240025922A1, “TETRAHYDROPYRIDO[3,4-d]PYRIMIDINES AS HPK1 INHIBITORS” (Merck Patent GmbH, priority 2022, published 2024).

The chains behind the UniProt entries cited, without tags or fusion partners.
UniProt Q92918, whole entry: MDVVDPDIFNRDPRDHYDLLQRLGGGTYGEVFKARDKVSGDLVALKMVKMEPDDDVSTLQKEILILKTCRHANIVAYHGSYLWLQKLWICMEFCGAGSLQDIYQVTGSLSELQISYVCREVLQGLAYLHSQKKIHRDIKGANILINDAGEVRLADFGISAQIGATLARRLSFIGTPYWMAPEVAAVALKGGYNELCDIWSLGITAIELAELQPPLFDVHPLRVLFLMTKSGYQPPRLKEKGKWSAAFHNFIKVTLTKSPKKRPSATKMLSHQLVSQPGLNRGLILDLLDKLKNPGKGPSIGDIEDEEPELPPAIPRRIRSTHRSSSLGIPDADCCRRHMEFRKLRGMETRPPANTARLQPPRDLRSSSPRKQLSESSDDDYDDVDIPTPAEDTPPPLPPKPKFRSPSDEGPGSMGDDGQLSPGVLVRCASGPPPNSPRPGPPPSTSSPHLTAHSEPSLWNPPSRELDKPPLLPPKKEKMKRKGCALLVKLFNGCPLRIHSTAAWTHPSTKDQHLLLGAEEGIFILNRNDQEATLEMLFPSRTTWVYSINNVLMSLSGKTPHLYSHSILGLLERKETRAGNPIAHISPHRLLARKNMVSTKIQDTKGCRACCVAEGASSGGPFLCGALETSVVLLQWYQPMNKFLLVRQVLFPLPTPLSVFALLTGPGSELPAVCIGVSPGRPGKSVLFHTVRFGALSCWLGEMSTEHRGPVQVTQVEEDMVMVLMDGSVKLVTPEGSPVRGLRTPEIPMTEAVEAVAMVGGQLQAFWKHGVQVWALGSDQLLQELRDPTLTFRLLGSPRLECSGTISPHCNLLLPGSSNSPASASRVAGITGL

Molecules are shown by their SMILES. Some results are limits rather than exact numbers.

The term IC50 denotes the point on the concentration scale where inhibition reaches its midpoint.

Assay [1] concerns the target full-length human HPK1 (MAP4K1) (Homo sapiens (Human), UniProt Q92918). The assay can be described thus: HPK1 Kinase Assay (Biochemical Assay), ADP-Glo. The settings on record: GST-HPK1 3.2 nM, 10 μM ATP, MBP substrate, read-out: HPK1 enzymatic IC50. From the text:
HPK1 Kinase Assay (Biochemical Assay).
A recombinant fusion protein consisting of full-length human HPK1 (MAP4K1) with an N-terminal Glutatione S-transferase (GST) tag was produced in insect cells Sf21 using the baculovirus expression system. GST-HPK1 protein was purified from cell lysates by glutathione Sepharose affinity chromatography. The assay is run in three continuous steps: 1) the HPK1 enzymatic kinase reaction, 2) an ATP depletion, and 3) the ADP detection, the steps 2 and 3 are performed with ADP-Glo™ Kinase Assay kit from Promega (V9101). Test compounds were prepared by 10-point serial dilution in dimethyl sulfoxide (DMSO) and 100 nL of each dilution was spotted onto a 384-well Optiplate (Perkin Elmer and Cat #6007299) by Labcyte Echo. 5 μL kinase reaction buffer (0.02% Brij-35, 2 mM DTT, 50 mM HEPES pH 7.5, MgCl2 10 mM, BSA 0.01% and O-glycerophosphate 12.5 mM) containing HPK1 (3.2 nM) enzyme was transferred to each well and incubated for 15 minutes at room temperature at 60% humidity. The enzymatic reaction was started by adding 5 μl of Start-Mix (10 μM ATP and 3.235 μM MBP). […] The plate was transferred to a Perkin Elmer EnVision (2104 Multilabel Reader) for luminescence detection and percent inhibition activity and IC50 value were determined using Genedata Screener.
In general terms: ADP-Glo first removes unused ATP, then detects ADP through luciferase.

For assay [2], the target named is HPK1 (SLP76 phosphorylation at Ser376 in Jurkat and EL-4 cells) (Homo sapiens, UniProt Q92918). In kind it is cell-based. The settings on record: read-out: HPK1 pSLP76 IC50; αCD3/αCD28 Dynabeads stimulated cells, pSLP76 (Ser376) detection. The procedure: Cellular Assay—Phospho-SLP-76 (Ser376).
Inhibition of HPK1 enzymatic activity in cells was determined by detection of SLP76 phosphorylation at Ser376 residue in lysate from Jurkat (human) and EL-4 (mouse) cells. Jurkat and EL-4 cells express both HPK1 and SLP76 naturally. All cells were cultured in RPMI 1640 media containing 10% heat inactivated fetal bovine serum (FBS) and 1×Penicillin-Streptomycin. In either Jurkat or El-4 assay, cells were pre-incubated with test compounds prior to T cell stimulation by respective αCD3/αCD28 Dynabeads™. For detection, plates were read on the Envision and percent inhibition and IC50 were determined by Smart fit in Genedata Analyzer.
For Jurkat cells: 35 μL cell suspension were dispensed at a density of 30,000 cells/well in 384-well plates containing HBSS (Gibco, 14025076)+0.1% BSA). […]
For EL-4.IL2 assay, 50 μL cell suspension at 2×10^6 cells/mL in HBSS were first dispensed into 384-well plates and then 50 nL serial dilutions of test compounds were spotted to each well by an Echo liquid handler. […] For detection, 4 μL prepared HTRF antibody mixture (Cisbio, 63ADK000U) in detection buffer were mixed with 16 μl of cell lysate and plates were incubated at room temperature for 19 hours prior to EnVision reading.

Consider `Cc1c(N2CCc3cnc(Nc4cccc(CN(C)C)c4)nc3C2)cnc2c1NCCO2` [Example 65, N-{3-[(dimethylamino)methyl]phenyl}-7-{8-methyl-1H,2H,3H-pyrido[2,3-b][1,4]oxazin-7-yl}-5H,6H,7H,8H-pyrido[3,4-d]pyrimidin-2-amine], for which the half-maximal inhibitory concentration (IC50) in assay [1] is < 100 nM; in assay [2], 500 to 1000 nM.
